Laboratory results published in US20060094721A9, “Sulfonamides as potassium channel blockers” (Icagen, Inc., priority 2002, published 2006).

Protein sequences, listed by entry. Tags and fused reporters are not part of them.
UniProt O15554, whole entry: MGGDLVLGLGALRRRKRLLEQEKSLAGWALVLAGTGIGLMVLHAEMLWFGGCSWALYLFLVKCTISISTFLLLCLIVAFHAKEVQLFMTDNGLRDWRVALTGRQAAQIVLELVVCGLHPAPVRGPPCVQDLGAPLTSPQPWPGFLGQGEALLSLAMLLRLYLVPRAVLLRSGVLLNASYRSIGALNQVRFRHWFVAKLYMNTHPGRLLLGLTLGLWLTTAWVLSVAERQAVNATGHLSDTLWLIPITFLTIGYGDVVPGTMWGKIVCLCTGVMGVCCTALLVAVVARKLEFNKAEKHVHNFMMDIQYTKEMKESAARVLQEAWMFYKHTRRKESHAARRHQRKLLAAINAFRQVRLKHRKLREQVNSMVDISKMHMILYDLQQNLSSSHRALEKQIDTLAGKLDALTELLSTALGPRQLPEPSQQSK

What follows are compounds tested against intermediate conductance, calcium activated potassium channel (Gardos channel) in red blood cells (Homo sapiens, UniProt O15554) (assay: 86Rb flux assay for inhibition of the Gardos channel in red blood cells (Example 4)). Settings: CaCl2 and A23187.
Protocol: Activities for selected compounds of the invention were determined using the assay set forth in Example 4, and are presented in Table 1.
Example 4 illustrates the use of a rubidium flux assay to determine the activity of the compounds of the invention.
Example 4 describes a bioassay for measuring the inhibition of a calcium activated potassium channel, the Gardos channel, in red blood cells by the compounds of the invention.
Heparinized whole blood was washed three times with Modified Flux Buffer (MFB: 140 mM NaCl; 5 mM KCl; 10 mM Tris; 0.1 mM EGTA; pH=7.4). Red blood cells (“RBCs”) at an approximate 10% hematocrit. Washed cells were then incubated for 3 hours with ^86Rb (5 μCi/mL). After this incubation period, the RBCs were washed three times with cold MFB. Washed ^86Rb loaded RBCs were then incubated with a test compound of the invention for 10 minutes. ^86Rb flux was then initiated by the addition of 10 μL/mL of a MFB solution containing 10 mM CaCl2 and 100 μM A23187, a calcium ionophore. This yielded a final concentration of 100 μM CaCl2 and […] A23187 n the incubation medium. Cells were incubated for 10 minutes, spun down and the supernatant was removed. Samples were counted in a Wallace Microbeta liquid scintillation counter by Cerenkov emission. Total RBC ^86Rb content was determined by lysing the RBCs with water and then precipitating protein using a 50:50 mixture of ethanol:chloroform. After a 20 minute microfuge spin, the aqueous and organic layers separated and the aqueous layer was removed and counted. Efflux is expressed as a percentage of the initial cell content of ^86Rb.

SMILES | Activity (relative potencies in the intermediate conductance, calcium activated potassium channel blocker assay, IC50 class)
COC(=O)c1cc(Cl)ccc1NS(=O)(=O)c1cccc(C(F)(F)F)c1 | ++ (++ represents 2 μM < IC50 < 0.5 μM)
CN(C)c1ccc(NS(=O)(=O)c2cccc(C(F)(F)F)c2)c(-c2ncco2)c1 | ++ (++ represents 2 μM < IC50 < 0.5 μM)
O=S(=O)(Nc1ccccc1-c1nnco1)c1cccc(C(F)(F)F)c1 | ++ (++ represents 2 μM < IC50 < 0.5 μM)
COC(=O)c1cc(Cl)ccc1NS(=O)(=O)c1ccc(Cl)c(Cl)c1 | + (+ Represents 10 μM < IC50 < 2 μM)
COC(=O)c1sccc1NS(=O)(=O)c1ccc(C(F)(F)F)cc1 | + (+ Represents 10 μM < IC50 < 2 μM)
CCOc1ccc(NS(=O)(=O)c2cccc(C(F)(F)F)c2)c(-c2ncco2)c1 | ++ (++ represents 2 μM < IC50 < 0.5 μM)

Same assay, conditions: read-out: Activity (relative potencies in the intermediate conductance, calcium activated potassium channel blocker assay, IC50 class), CaCl2 and A23187

SMILES | IC50 [nM]
CCOC(=O)c1ccccc1NS(=O)(=O)c1cccc(C(F)(F)F)c1 | < 500
O=S(=O)(Nc1ccccc1C1=NCCO1)c1cccc(C(F)(F)F)c1 | < 500
COc1cc(NS(=O)(=O)c2cccc(C(F)(F)F)c2)c(-c2ncco2)cc1OC | < 500
